This data set relates to HeLa cells. The note with it: dose-response up to 10 μM, co-treated with DNMDP, 48 hours. The procedure: HeLa cells were co-treated with 30 nM DNMDP (the EC70 concentration) and 20 μM of each bioactive compound. Cell viability after 48-hour treatment was assessed by ATP consumption as described earlier.
1000 HeLa cells were plated in a 384-well plate in 40 μl of DMEM supplemented with 10% Fetal Bovine Serum and 1% Pen/Strep. 24 hours after plating, a compound-library of 1600 bioactive molecules (Pharmacon) was added at a concentration of 20 μM. In parallel to bioactive compound incubation, DNMDP was added to a final concentration of 30 nM and incubated for 48 hours. Cell viability was assessed as described in Compound library screening in NCI-H1734 and A549 cell lines.

SMILES strings stand for the structures.

The text below walks through data of patent US11207320B2, “Compositions and methods for cancer expressing PDE3A or SLFN12” (The Broad Institute, Inc., priority 2015, dated 2021).

On to `OCCN(CCO)c1nc(N2CCCCC2)c2nc(N(CCO)CCO)nc(N3CCCCC3)c2n1` [dipyridamole], for which the “rescue of DNMDP cytotoxicity / competition with DNMDP” value is “not effective competitors”.
